Consider one substance from patent publication US20180339017A1 (Merck Sharp & Dohme, published 2018).

Sequences of proteins named here, by UniProt entry; tags and fusion partners are left off. Residues count along the entry.
UniProt P43220, 24-463: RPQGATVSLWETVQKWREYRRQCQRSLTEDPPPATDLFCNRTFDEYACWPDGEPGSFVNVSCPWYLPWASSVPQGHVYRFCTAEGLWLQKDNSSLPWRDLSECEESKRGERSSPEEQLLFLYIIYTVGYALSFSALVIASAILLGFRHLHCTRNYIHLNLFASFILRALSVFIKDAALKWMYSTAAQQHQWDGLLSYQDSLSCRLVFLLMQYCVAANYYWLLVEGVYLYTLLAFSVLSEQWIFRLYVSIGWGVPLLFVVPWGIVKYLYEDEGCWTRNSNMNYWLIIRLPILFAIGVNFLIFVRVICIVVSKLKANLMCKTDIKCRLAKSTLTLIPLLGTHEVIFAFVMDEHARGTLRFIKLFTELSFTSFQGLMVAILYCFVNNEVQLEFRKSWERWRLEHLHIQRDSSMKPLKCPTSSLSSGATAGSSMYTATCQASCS

In this test the target is human GLP-1 receptor (human) (UniProt P43220). Description: cell-based or functional assay.

As for Native GLP-1 (peptide), the EC50 hGLP1R (cAMP activity assay) came to 8 pM.
